Permeability data for macrocyclic peptides

Source: CycPeptMPDB (Li et al. 2023), which took these values from Kelly et al. 2021, doi:10.1021/jacs.0c06115.

PAMPA is the parallel artificial membrane permeability assay, which has no cells and reads passive diffusion.
Permeability is in 10^-6 cm/s, converted from the database's log10 values; higher is more permeable.

* CC(=O)N1CCC[C@H]1C(=O)N[C@@H]1C(=O)N[C@H](CC(C)C)C(=O)N[C@H](CC(C)C)C(=O)N(C)[C@H](CC(C)C)C(=O)N[C@H](CC(C)C)C(=O)N[C@H](C)C(=O)N[C@@H](CC(C)C)C(=O)N2CCC[C@@H]2C(=O)O[C@@H]1C: PAMPA 0.62 × 10^-6 cm/s
* CC(=O)N1CCC[C@H]1C(=O)N(C)[C@H](CC(C)C)C(=O)N[C@@H]1C(=O)N[C@@H](CC(C)C)C(=O)N[C@H](CC(C)C)C(=O)N[C@@H](CC(C)C)C(=O)N[C@@H](C)C(=O)N[C@@H](CC(C)C)C(=O)N2CCC[C@H]2C(=O)O[C@@H]1C: PAMPA 0.055 × 10^-6 cm/s
* CC(=O)N1CCC[C@H]1C(=O)N[C@@H]1C(=O)N[C@H](CC(C)C)C(=O)N[C@H](CC(C)C)C(=O)N[C@H](CC(C)C)C(=O)N[C@@H](CC(C)C)C(=O)N[C@H](C)C(=O)N[C@@H](CC(C)C)C(=O)N2CCC[C@@H]2C(=O)O[C@@H]1C: PAMPA 0.23 × 10^-6 cm/s
* CC(=O)N1CCC[C@@H]1C(=O)N(C)[C@H](CC(C)C)C(=O)N[C@@H]1C(=O)N[C@@H](CC(C)C)C(=O)N(C)[C@H](CC(C)C)C(=O)N(C)[C@H](CC(C)C)C(=O)N(C)[C@@H](C)C(=O)N[C@H](CC(C)C)C(=O)N2CCC[C@@H]2C(=O)O[C@@H]1C: PAMPA 1.9 × 10^-6 cm/s
* CC(=O)N1CCC[C@@H]1C(=O)N(C)[C@@H](CC(C)C)C(=O)N[C@@H]1C(=O)N(C)[C@@H](CC(C)C)C(=O)N(C)[C@H](CC(C)C)C(=O)N(C)[C@@H](CC(C)C)C(=O)N(C)[C@@H](C)C(=O)N[C@@H](CC(C)C)C(=O)N2CCC[C@@H]2C(=O)O[C@@H]1C: PAMPA 0.81 × 10^-6 cm/s
* CC(=O)N1CCC[C@@H]1C(=O)N(C)[C@@H](CC(C)C)C(=O)N[C@@H]1C(=O)N[C@@H](CC(C)C)C(=O)N(C)[C@@H](CC(C)C)C(=O)N[C@H](CC(C)C)C(=O)N[C@H](C)C(=O)N[C@@H](CC(C)C)C(=O)N2CCC[C@@H]2C(=O)O[C@@H]1C: PAMPA 4.6 × 10^-6 cm/s
* CC(=O)N1CCC[C@@H]1C(=O)N(C)[C@H](CC(C)C)C(=O)N[C@@H]1C(=O)N(C)[C@@H](CC(C)C)C(=O)N(C)[C@H](CC(C)C)C(=O)N[C@H](CC(C)C)C(=O)N(C)[C@H](C)C(=O)N[C@@H](CC(C)C)C(=O)N2CCC[C@H]2C(=O)O[C@@H]1C: PAMPA 0.35 × 10^-6 cm/s
* CC(=O)N1CCC[C@@H]1C(=O)N(C)[C@H](CC(C)C)C(=O)N[C@@H]1C(=O)N[C@H](CC(C)C)C(=O)N(C)[C@@H](CC(C)C)C(=O)N(C)[C@H](CC(C)C)C(=O)N(C)[C@H](C)C(=O)N[C@@H](CC(C)C)C(=O)N2CCC[C@@H]2C(=O)O[C@@H]1C: PAMPA 6.5 × 10^-6 cm/s
* CC(=O)N1CCC[C@H]1C(=O)N(C)[C@@H](CC(C)C)C(=O)N[C@@H]1C(=O)N(C)[C@H](CC(C)C)C(=O)N[C@H](CC(C)C)C(=O)N(C)[C@H](CC(C)C)C(=O)N[C@@H](C)C(=O)N[C@@H](CC(C)C)C(=O)N2CCC[C@@H]2C(=O)O[C@@H]1C: PAMPA 0.11 × 10^-6 cm/s
* CC(=O)N1CCC[C@H]1C(=O)N[C@@H]1C(=O)N[C@H](CC(C)C)C(=O)N[C@@H](CC(C)C)C(=O)N[C@@H](CC(C)C)C(=O)N(C)[C@H](CC(C)C)C(=O)N[C@H](C)C(=O)N[C@@H](CC(C)C)C(=O)N2CCC[C@@H]2C(=O)O[C@@H]1C: PAMPA 0.5 × 10^-6 cm/s
* CC(=O)N[C@@H]1C(=O)N2CCC[C@H]2C(=O)N(C)[C@H](CC(C)C)C(=O)N[C@H](CC(C)C)C(=O)N[C@@H](CC(C)C)C(=O)N[C@H](CC(C)C)C(=O)N[C@H](C)C(=O)N[C@@H](CC(C)C)C(=O)N2CCC[C@@H]2C(=O)O[C@@H]1C: PAMPA 0.055 × 10^-6 cm/s
* CC(=O)N1CCC[C@H]1C(=O)N[C@@H]1C(=O)N(C)[C@H](CC(C)C)C(=O)N[C@H](CC(C)C)C(=O)N[C@H](CC(C)C)C(=O)N(C)[C@H](CC(C)C)C(=O)N[C@@H](C)C(=O)N[C@@H](CC(C)C)C(=O)N2CCC[C@@H]2C(=O)O[C@@H]1C: PAMPA 0.24 × 10^-6 cm/s
* CC(=O)N1CCC[C@H]1C(=O)N(C)[C@@H](CC(C)C)C(=O)N[C@@H]1C(=O)N[C@@H](CC(C)C)C(=O)N[C@@H](CC(C)C)C(=O)N[C@@H](CC(C)C)C(=O)N[C@@H](C)C(=O)N[C@@H](CC(C)C)C(=O)N2CCC[C@H]2C(=O)O[C@@H]1C: PAMPA 0.37 × 10^-6 cm/s
* CC(=O)N1CCC[C@H]1C(=O)N(C)[C@@H](CC(C)C)C(=O)N[C@@H]1C(=O)N[C@@H](CC(C)C)C(=O)N[C@@H](CC(C)C)C(=O)N(C)[C@H](CC(C)C)C(=O)N[C@@H](C)C(=O)N[C@@H](CC(C)C)C(=O)N2CCC[C@H]2C(=O)O[C@@H]1C: PAMPA 0.71 × 10^-6 cm/s
* CC(=O)N1CCC[C@@H]1C(=O)N(C)[C@@H](CC(C)C)C(=O)N[C@@H]1C(=O)N[C@@H](CC(C)C)C(=O)N[C@H](CC(C)C)C(=O)N[C@H](CC(C)C)C(=O)N[C@H](C)C(=O)N[C@H](CC(C)C)C(=O)N2CCC[C@H]2C(=O)O[C@@H]1C: PAMPA 0.15 × 10^-6 cm/s
* CC(=O)N1CCC[C@H]1C(=O)N(C)[C@H](CC(C)C)C(=O)N[C@@H]1C(=O)N(C)[C@H](CC(C)C)C(=O)N(C)[C@@H](CC(C)C)C(=O)N[C@@H](CC(C)C)C(=O)N[C@@H](C)C(=O)N[C@H](CC(C)C)C(=O)N2CCC[C@@H]2C(=O)O[C@@H]1C: PAMPA 2.8 × 10^-6 cm/s
* CC(=O)N1CCC[C@@H]1C(=O)N(C)[C@H](CC(C)C)C(=O)N[C@@H]1C(=O)N(C)[C@@H](CC(C)C)C(=O)N(C)[C@H](CC(C)C)C(=O)N(C)[C@H](CC(C)C)C(=O)N(C)[C@@H](C)C(=O)N[C@@H](CC(C)C)C(=O)N2CCC[C@@H]2C(=O)O[C@@H]1C: PAMPA 2.1 × 10^-6 cm/s
* CC(=O)N1CCC[C@@H]1C(=O)N(C)[C@@H](CC(C)C)C(=O)N[C@@H]1C(=O)N[C@H](CC(C)C)C(=O)N[C@H](CC(C)C)C(=O)N[C@H](CC(C)C)C(=O)N(C)[C@H](C)C(=O)N[C@@H](CC(C)C)C(=O)N2CCC[C@@H]2C(=O)O[C@@H]1C: PAMPA 1.4 × 10^-6 cm/s
* CC(=O)N1CCC[C@H]1C(=O)N(C)[C@@H](CC(C)C)C(=O)N[C@@H]1C(=O)N(C)[C@@H](CC(C)C)C(=O)N(C)[C@H](CC(C)C)C(=O)N(C)[C@@H](CC(C)C)C(=O)N(C)[C@@H](C)C(=O)N[C@@H](CC(C)C)C(=O)N2CCC[C@@H]2C(=O)O[C@@H]1C: PAMPA 3.2 × 10^-6 cm/s
* CC(=O)N1CCC[C@H]1C(=O)N(C)[C@@H](CC(C)C)C(=O)N[C@@H]1C(=O)N[C@H](CC(C)C)C(=O)N[C@@H](CC(C)C)C(=O)N(C)[C@H](CC(C)C)C(=O)N(C)[C@H](C)C(=O)N[C@H](CC(C)C)C(=O)N2CCC[C@@H]2C(=O)O[C@@H]1C: PAMPA 1.4 × 10^-6 cm/s
* CC(=O)N1CCC[C@H]1C(=O)N[C@@H]1C(=O)N[C@H](CC(C)C)C(=O)N(C)[C@H](CC(C)C)C(=O)N[C@H](CC(C)C)C(=O)N(C)[C@@H](CC(C)C)C(=O)N(C)[C@H](C)C(=O)N[C@@H](CC(C)C)C(=O)N2CCC[C@@H]2C(=O)O[C@@H]1C: PAMPA 3.4 × 10^-6 cm/s

Extract of 3 entries:

structure (SMILES)	PAMPA (10^-6 cm/s)
CC(=O)N1CCC[C@H]1C(=O)N(C)[C@@H](CC(C)C)C(=O)N[C@@H]1C(=O)N[C@@H](CC(C)C)C(=O)N[C@@H](CC(C)C)C(=O)N[C@@H](CC(C)C)C(=O)N[C@@H](C)C(=O)N[C@@H](CC(C)C)C(=O)N2CCC[C@H]2C(=O)O[C@@H]1C	0.37
CC(=O)N1CCC[C@@H]1C(=O)N(C)[C@@H](CC(C)C)C(=O)N[C@@H]1C(=O)N(C)[C@@H](CC(C)C)C(=O)N(C)[C@H](CC(C)C)C(=O)N(C)[C@@H](CC(C)C)C(=O)N(C)[C@@H](C)C(=O)N[C@@H](CC(C)C)C(=O)N2CCC[C@@H]2C(=O)O[C@@H]1C	0.81
CC(=O)N1CCC[C@H]1C(=O)N(C)[C@@H](CC(C)C)C(=O)N[C@@H]1C(=O)N(C)[C@H](CC(C)C)C(=O)N[C@H](CC(C)C)C(=O)N(C)[C@H](CC(C)C)C(=O)N[C@@H](C)C(=O)N[C@@H](CC(C)C)C(=O)N2CCC[C@@H]2C(=O)O[C@@H]1C	0.11

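Lipid, pH, incubation time, direction and concentration are not recorded in the data file. The list need not hold all peptides of the study. Entries at the database's floor value (log10 P of -10) are not listed.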